The structures appear in SMILES notation. Values joined by “and” are separate entries in the source; they are usually repeats but may differ in a detail not shown here. Identical values can stand only once. Only a part is listed here, and it is no random draw. Active and inactive are the calls of the source. Calls come from the whole dose curve; as a rule, active = well fitted inhibition curve with a large enough effect; inconclusive = small, poorly fitted or top-dose-only effect; inactive = no such curve, though single readings can be large or run the other way.
Potency is the fitted concentration of half-maximal effect.

Amino acid sequences for entries named in this document (tags omitted).
UniProt Q9NUW8, whole entry, looked up: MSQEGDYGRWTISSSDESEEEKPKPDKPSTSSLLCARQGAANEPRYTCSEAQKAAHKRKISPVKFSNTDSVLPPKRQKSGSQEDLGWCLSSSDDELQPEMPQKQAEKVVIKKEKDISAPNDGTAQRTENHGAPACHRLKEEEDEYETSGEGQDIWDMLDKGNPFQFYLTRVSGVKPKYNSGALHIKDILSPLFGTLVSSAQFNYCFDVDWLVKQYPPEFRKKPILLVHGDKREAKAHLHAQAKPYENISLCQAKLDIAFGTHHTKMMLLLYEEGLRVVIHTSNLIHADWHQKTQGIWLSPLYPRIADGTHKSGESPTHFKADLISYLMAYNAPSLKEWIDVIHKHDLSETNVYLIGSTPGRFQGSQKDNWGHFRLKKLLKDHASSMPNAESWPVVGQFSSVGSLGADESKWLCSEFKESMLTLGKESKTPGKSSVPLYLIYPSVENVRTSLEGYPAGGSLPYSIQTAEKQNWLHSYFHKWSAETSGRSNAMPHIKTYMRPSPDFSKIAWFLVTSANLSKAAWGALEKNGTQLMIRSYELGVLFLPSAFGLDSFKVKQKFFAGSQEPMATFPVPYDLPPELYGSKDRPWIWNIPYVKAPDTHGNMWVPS

The target in the assay is Tyrosyl-DNA phosphodiesterase 1 (Homo sapiens) (UniProt Q9NUW8). As to the kind of experiment: qHTS Assay for Inhibitors of Tyrosyl-DNA Phosphodiesterase (TDP1). Note: nearly all actives have a fitted effect of over 40% in size. To be noted: recombinant TDP1, AlphaScreen DNA substrate cleavage. The text has this:
NIH Molecular Libraries Probe Production Network [MLPCN]
NIH Chemical Genomics Center [NCGC]
Assay Provider: Yves Pommier and Christophe Marchand, National Cancer Institute
Assay Title: qHTS Assay for Inhibitors of Tyrosyl-DNA Phosphodiesterase (TDP1); note: nearly all actives have a fitted effect of over 40% in size
Human tyrosyl-DNA phosphodiesterase I (Tdp1) is a rational anticancer target because this enzyme is involved in the repair of DNA lesions created by the trapping of human DNA topoisomerase I (Top1) following treatment by anticancer agents such as camptothecins. Recombinant Tdp1 was expressed and purified from E. coli in the laboratory (Anthony et al, Nucleic Acids Research, 2007, Vol. 35, 4474-4484). A Tdp1 DNA substrate bearing a 5' biotin and a 3' phospho-tyrosine was obtained by custom synthesis. This oligonucleotidic DNA substrate was subsequently coupled to a fluorescein isothiocyanate (FITC) group via the free amino group present on the phospho-tyrosine. Tdp1 was screened against the NCGC small molecule library using the AlphaScreen (AS) detection method in which a streptavidin donor AS bead is bound at the 5' end and an anti-FITC AS acceptor bead is bound at the 3' end of the DNA oligonucleotidic substrate. […]
3 ul of Tdp1 enzyme is dispensed to 1536-well Kalypsys black solid bottom plates. […] The detection is then performed on a PerkinElmer Envision reader.
For the compound `CC(CCC(C)C(C)(C)C)[C@@H]1CC[C@H]2C3C[C@H](OS(O)(=S)=S)[C@H]4C[C@H](OS(O)(=S)=S)[C@@H](OS(O)(=S)=S)C[C@]4(C)[C@H]3CC[C@]12C` (some centres not stated) (tested in a mixture with another compound), the Potency is active: 39.8 µM and active: 20 µM. Next, `COc1c(N2CCNC(C)C2)c(F)cc2c(=O)c(C(=O)O)cn(C3CC3)c12` (configuration not stated): active: 28.2 µM.

The values are drawn from PubChem BioAssay AID485290 (National Center for Advancing Translational Sciences (NCATS), 2010).
